The entries are a selection whose mix differs from that of the whole data set. Results filed as inconclusive are left out. Activity calls are given as the source filed them. No stated cut-off is given here; in the data, active means CPE inhibition above about 20% (passing the limit was not always enough); inconclusive means no clear call, values can overlap the other calls; tested in BHK-21 cells.
Assay: protection of cells from dengue 2 killing – plate reader, single concentration, primary screen (AID 651640);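 further: 0% = median of neutral control wells and 100% = median of positive control wells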
Settings: DENV2-infected cells, cytopathic effect rescue, at 9.99 µM, hits give high values

**Q.** Which CPE inhibition does the source give for `COc1ccccc1OP(=O)(Nc1ccc(C)cn1)Oc1ccccc1OC` here?
**A.** Its CPE inhibition is inactive: 17.1%.

Reference: PubChem BioAssay AID651640 (Broad Institute, 2012)
